The target in the experiment is T1, cloned human P2Y1 receptors (Homo sapiens, UniProt P47900).
T1 construct: expressed in transfected cells
As to the kind of experiment: P2Y1 membrane binding assay ([33P] 2MeS-ADP displacement). Particulars: radioligand Kd used in the Cheng-Prusoff calculation; read-out: Kd for 2MeS-ADP to the P2Y1 receptor. An excerpt:
A membrane binding assay was used to identify inhibitors of [^33P] […] The cDNA clone for human P2Y1 was obtained from Incyte Pharmaceuticals and its sequence confirmed by established techniques (for a compendium of techniques used see Ausubel, F. et al. Current Protocols in Molecular Biology 1995 John Wiley and Sons, NY, N.Y.). The essential coding sequences were subcloned into pCDNA 3.1 (Invitrogen) to produce a P2Y1 expression construct. This construct was then transfected into the human embryonic kidney cell line HEK-293 and stable transfectants selected in Genetcin® (G418 sulfate; Life Technologies). […] Plates were then washed with cold (4° C.) D-PBS twice and cells harvested by scraping into 10 mL D-PBS. Cells were pelleted by centrifugation (1,000 g, 10 min, 4° C.) and the resulting pellet resuspended in Lysis Buffer (10 mM Tris (7.4), 5 mM MgCl2 containing Complete® protease inhibitor cocktail (Roche Cat #1873580) as recommended by the manufacturer). […]
Binding reactions were performed in WGA FlashPlates (PerkinElmer Life Sciences, Cat # SMP105A) in a volume of 200 μL containing ˜45 fmol of P2Y1 receptor (5 μg of total protein), 0.5 nM [^33P] […] Plates were sealed and the residual [^33P] bound to the plate determined by scintillation counting.

Chains of the proteins cited; added tags and fusions are not shown. Lines headed by an entry give the natural chain unless they say otherwise; changes in a name come on top.
UniProt P47900: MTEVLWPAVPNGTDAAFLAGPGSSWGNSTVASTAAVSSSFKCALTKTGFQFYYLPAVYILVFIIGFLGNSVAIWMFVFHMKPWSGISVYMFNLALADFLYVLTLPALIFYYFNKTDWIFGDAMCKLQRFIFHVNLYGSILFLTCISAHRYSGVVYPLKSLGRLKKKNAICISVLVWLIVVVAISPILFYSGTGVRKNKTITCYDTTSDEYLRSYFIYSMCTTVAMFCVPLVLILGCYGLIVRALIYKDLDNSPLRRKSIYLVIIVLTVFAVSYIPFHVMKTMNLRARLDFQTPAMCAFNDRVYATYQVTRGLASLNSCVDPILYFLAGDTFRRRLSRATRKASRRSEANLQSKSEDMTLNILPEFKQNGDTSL

The Kd is the constant that tells how readily two partners part at equilibrium. Consider `CSc1nc(N)c2ncn([C@@H]3O[C@H](COP(=O)(O)OP(=O)(O)O)[C@@H](O)[C@H]3O)c2n1` [Example 2MeS-ADP, 2MeS-ADP], for which the Kd was 1.4 nM.

The values above are taken from patent US7645778B2, “Heteroaryl compounds as P2Y1 receptor inhibitors” (Bristol-Myers Squibb COmpany, priority 2005, dated 2010).
